Source: patent US9884067B2, “Androgen receptor down-regulating agents and uses thereof” (UNIVERSITY OF MARYLAND EASTERN SHORE, priority 2013, dated 2018)

Tested on: full-length AR
Experiment: Down-regulation of full-length AR, western blot in CWR22rv1 cells
Assay type: cell-based, human
Conditions: CWR22rv1 prostate cancer cell line

CNC(=O)c1ccc(N2C(=S)N(c3ccc(C#N)c(C(F)(F)F)c3)C(=O)C2(C)C)cc1F [MDV3100 (6), enzalutamide, reference compound]
down-regulation of full-length AR: did not affect the expression levels
